# Measured values taken from PubChem BioAssay AID817 (Emory University Molecular Libraries Screening Center, 2007).
# This is a selection; strong and weak results do not stand in their true shares. The source made the active and inactive calls.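 The calls were made as follows: active = z-score above 3 at both the 24 hr and the 30 hr optical density reads; inactive = the rest, inconclusive results apart.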
# Assay: restorers of sdo1-deficient yeast growth – S. cerevisiae, bone marrow failure model, primary screen (AID 817);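 also: z-score against mean and SD of all compound wells on the same plate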
# Conditions: S. cerevisiae sdo1-depleted JHY4D growth rescue, OD600 30 h; at 10 µM; stronger effect = higher value; pdr5 snq2 efflux-pump mutant strain
row,SMILES,z-score
1,O=[N+]([O-])c1ccc2c(c1)nnn2O,inactive: 0.67
2,Cc1cc(C)cc(OP(C)(=O)Nc2ccc(C)cc2C)c1 (stereo unspecified),inactive: -0.27
3,Cc1cccc(OCC(=O)OC2CN3CCC2CC3)c1 (stereo unspecified),inactive: 0.23
4,CCOC(=O)c1ccc(NP(C)(=O)Oc2cc(C)cc(C)c2)cc1 (stereo unspecified),inactive: 0.16
5,CCOP(=O)(Nc1cccc2ccccc12)OCC,inactive: -0.29
6,Cc1ccc(NCCc2c([N+](=O)[O-])cc([N+](=O)[O-])cc2[N+](=O)[O-])cc1,inactive: -1.16
7,Cc1cc(C)cc(OP(C)(=O)Nc2ccccn2)c1 (stereo unspecified),inactive: -0.42
8,Cc1ccc(C)c(NP(C)(=O)Oc2ccccc2)c1 (stereo unspecified),inactive: -0.32
9,Cc1c2c(nc3ccccc13)SC(C(Cl)Cl)C2 (stereo unspecified),inactive: -1.31
10,O=C(OC1CN2CCC1CC2)C12CC3CC(CC(C3)C1)C2 (stereo unspecified),inactive: -0.86
11,CC(C)(C)c1ccc(OP(C)(=O)Nc2ccc(SC(F)(F)F)cc2)cc1 (stereo unspecified),inactive: -0.69
12,Cc1ccc2nc3c(c(C)c2c1)CC(C(Cl)Cl)S3 (stereo unspecified),inactive: -1.31
13,O=[N+]([O-])c1cc([N+](=O)[O-])c(-c2ccn[nH]2)s1,inactive: -0.74
14,COc1ccc(OP(C)(=O)Nc2cccc(F)c2)cc1 (stereo unspecified),inactive: 0.41
15,CCN(CC)C(=S)SC(NC=O)C(Cl)(Cl)Cl (stereo unspecified),inactive: -1.67
16,ClCCSc1nnc(-c2cccnc2)o1,inactive: 2.51

row,SMILES,z-score
1,CCOC(=O)c1ccc(NP(C)(=O)Oc2ccccc2)cc1 (stereo unspecified),inactive: -0.05
2,Cc1ccc(NP(C)(=O)Oc2ccccc2)c(C)c1 (stereo unspecified),inactive: 0.85
3,COc1ccccc1OP(C)(=O)Nc1ccc(C)cc1 (stereo unspecified),inactive: 0.69
4,Cc1cc(SC(NC(=O)c2ccccc2)C(Cl)(Cl)Cl)nc(C(C)C)n1 (stereo unspecified),inactive: -0.13
5,CP(=O)(Nc1ccccc1Br)Oc1ccccc1 (stereo unspecified),inactive: 0.37
6,CP(=S)(Nn1cnnc1)Oc1ccccc1 (stereo unspecified),inactive: 0.97
7,Cc1cc(C)cc(OP(C)(=O)Nc2ccc(SC(F)(F)F)cc2)c1 (stereo unspecified),inactive: -0.81
8,O=C(COc1ccccc1)OC1CN2CCC1CC2 (stereo unspecified),inactive: -0.64
9,CP(=O)(NC(=O)Nc1ccccc1)Oc1ccccc1 (stereo unspecified),inactive: 0.36
10,Cc1cccc(C)c1OP(C)(=O)Nc1ccc(SC(F)(F)F)cc1 (stereo unspecified),inactive: -1.66
11,COP1(=S)c2c(C)nn(CCC#N)c2N=C(c2ccc(F)cc2)N1C (stereo unspecified),inactive: 0.34
12,CCC(C)N(CC(C)C)C(=S)SC(NC(C)=O)C(Cl)(Cl)Cl (stereo unspecified),inactive: -1.06
13,CP(=O)(Nc1ccccn1)Oc1ccc(Cl)cc1 (stereo unspecified),inactive: -0.55
14,CCOP(C)(=S)SCC(=O)NC(C)C(=O)O (stereo unspecified),inactive: 0.83
15,CCOC(=O)c1ccc(NP(C)(=O)Oc2ccc(OC)cc2)cc1 (stereo unspecified),inactive: -0.42
